The conditions of data set [1]: mouse, in vivo, ip.

Some results are limits rather than exact numbers.

“cis-Cyclobutane-1,1-dicarboxylato-2,3-dimethyl-1,4-butanediamine Platinum [Compound No. 4]” yielded a Solubility in water of over 5000 µg/mL. Also, the Body weight ratio in data set [1] is 0.89.

The values above are taken from US5128493A, “Platinum complexes” (Nippon Kayaku Kabushiki Kaisha, priority 1987, dated 1992).
